Counter-ions that a name gives are not always drawn.
Columns and labels:
human serum BChE = human serum BChE (Homo sapiens (Human), UniProt P06276); assay: BChE inhibition assay (Ellman); format: biochemical; conditions: read-out: IC50 hBChE
Method: BChE inhibitory activity determinations were carried out similarly by the method of Ellman et al., using 0.02 unit/mL of human serum BChE and 300 μM butyrylthiocholine, instead of AChE and acetylthiocholine, in a final volume of 300 μL.
Results are expressed as mean±S.E.M. of at least 4 experiments performed in duplicate. DTNB, acetylthiocholine, butyrylthiocholine, and enzymes were purchased from Sigma.

By UniProt entry, the sequences of proteins in these tests, tags left out. Residues count along the entry.
UniProt P06276, 29-602: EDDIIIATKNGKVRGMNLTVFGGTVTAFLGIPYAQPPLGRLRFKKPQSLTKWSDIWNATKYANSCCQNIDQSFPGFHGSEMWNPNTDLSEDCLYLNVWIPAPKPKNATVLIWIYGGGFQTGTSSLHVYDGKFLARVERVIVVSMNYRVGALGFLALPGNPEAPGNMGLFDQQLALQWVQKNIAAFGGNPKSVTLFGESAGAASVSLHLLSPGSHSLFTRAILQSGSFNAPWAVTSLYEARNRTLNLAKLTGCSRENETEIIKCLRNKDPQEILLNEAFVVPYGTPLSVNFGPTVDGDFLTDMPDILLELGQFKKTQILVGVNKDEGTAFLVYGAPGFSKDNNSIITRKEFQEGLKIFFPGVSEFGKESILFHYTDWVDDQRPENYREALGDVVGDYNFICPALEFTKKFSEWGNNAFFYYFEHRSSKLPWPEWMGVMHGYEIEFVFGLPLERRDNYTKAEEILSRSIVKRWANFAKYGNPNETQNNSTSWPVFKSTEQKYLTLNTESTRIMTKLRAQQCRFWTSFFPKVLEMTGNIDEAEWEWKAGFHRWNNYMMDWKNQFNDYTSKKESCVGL
UniProt P22303, 32-614: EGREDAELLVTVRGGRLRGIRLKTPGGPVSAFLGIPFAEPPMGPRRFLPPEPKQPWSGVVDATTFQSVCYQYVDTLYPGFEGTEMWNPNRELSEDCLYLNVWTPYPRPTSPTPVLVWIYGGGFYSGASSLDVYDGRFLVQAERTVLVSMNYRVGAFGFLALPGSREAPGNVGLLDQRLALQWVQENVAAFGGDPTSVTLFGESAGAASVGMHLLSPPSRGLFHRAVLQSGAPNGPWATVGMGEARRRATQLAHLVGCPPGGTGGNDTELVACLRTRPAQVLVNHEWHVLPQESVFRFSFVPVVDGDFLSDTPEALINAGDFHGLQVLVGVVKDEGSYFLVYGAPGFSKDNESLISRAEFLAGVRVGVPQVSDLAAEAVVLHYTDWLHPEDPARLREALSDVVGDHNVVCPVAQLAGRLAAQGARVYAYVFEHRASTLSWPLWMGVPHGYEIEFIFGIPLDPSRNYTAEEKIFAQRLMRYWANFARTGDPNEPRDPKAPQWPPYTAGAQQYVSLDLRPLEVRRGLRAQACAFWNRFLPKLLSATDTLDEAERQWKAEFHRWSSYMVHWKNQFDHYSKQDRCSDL

[1] = target: recombinant human AChE (hAChE) (Homo sapiens (Human), UniProt P22303); conditions: read-out: IC50 hAChE
From the text: The results were plotted by placing the percentage of inhibition in function of the decimal log of the final inhibitor concentration.

| Structure (SMILES) | IC50 (human serum BChE) | IC50 [1] |
| --- | --- | --- |
| CC1=C[C@H]2Cc3nc4cc(Cl)ccc4c(NCCCCCCCCCNC(=O)c4cc(O)c5c(c4)C(=O)c4cccc(O)c4C5=O)c3[C@@H](C1)C2 [(+)-(Ib)•HCl, (+)-(7R,11R)—N-{9-[(3-chloro-6,7,10,11-tetrahydro-9-methyl-7,11-methanocycloocta[b]quinolin-12-yl)amino]nonyl}-9,10-dihydro-4,5-dihydroxy-9,10-dioxoanthracene-2-carboxamide] | 265 ± 21 nM | 2930 ± 285 nM |
| CC1=C[C@@H]2Cc3nc4cc(Cl)ccc4c(NCCCCCCCCCNC(=O)c4cc(O)c5c(c4)C(=O)c4cccc(O)c4C5=O)c3[C@H](C1)C2 [(−)-(Ib)•HCl, (−)-(7S,11S)—N-{9-[(3-chloro-6,7,10,11-tetrahydro-9-methyl-7,11-methanocycloocta[b]quinolin-12-yl)amino]nonyl}-9,10-dihydro-4,5-dihydroxy-9,10-dioxoanthracene-2-carboxamide] | 513 ± 58 nM | 2.4 ± 0.2 nM |

— patent US9238626B2 (priority 2012, dated 2016)
